Measured values published in patent US9120761B2, “Selective FAK inhibitors” (priority 2011, dated 2015).

Protein sequences, listed by entry. Tags and fused reporters are not part of them. Residues count along the entry.
UniProt Q05397, 411-686: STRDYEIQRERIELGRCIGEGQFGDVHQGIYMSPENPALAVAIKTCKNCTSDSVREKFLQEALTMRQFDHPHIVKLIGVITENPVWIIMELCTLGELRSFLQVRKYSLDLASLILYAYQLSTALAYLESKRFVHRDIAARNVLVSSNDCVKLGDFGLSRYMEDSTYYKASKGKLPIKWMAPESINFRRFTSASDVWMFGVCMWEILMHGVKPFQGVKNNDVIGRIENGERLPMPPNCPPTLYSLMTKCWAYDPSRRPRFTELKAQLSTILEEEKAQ
UniProt Q05397, whole entry: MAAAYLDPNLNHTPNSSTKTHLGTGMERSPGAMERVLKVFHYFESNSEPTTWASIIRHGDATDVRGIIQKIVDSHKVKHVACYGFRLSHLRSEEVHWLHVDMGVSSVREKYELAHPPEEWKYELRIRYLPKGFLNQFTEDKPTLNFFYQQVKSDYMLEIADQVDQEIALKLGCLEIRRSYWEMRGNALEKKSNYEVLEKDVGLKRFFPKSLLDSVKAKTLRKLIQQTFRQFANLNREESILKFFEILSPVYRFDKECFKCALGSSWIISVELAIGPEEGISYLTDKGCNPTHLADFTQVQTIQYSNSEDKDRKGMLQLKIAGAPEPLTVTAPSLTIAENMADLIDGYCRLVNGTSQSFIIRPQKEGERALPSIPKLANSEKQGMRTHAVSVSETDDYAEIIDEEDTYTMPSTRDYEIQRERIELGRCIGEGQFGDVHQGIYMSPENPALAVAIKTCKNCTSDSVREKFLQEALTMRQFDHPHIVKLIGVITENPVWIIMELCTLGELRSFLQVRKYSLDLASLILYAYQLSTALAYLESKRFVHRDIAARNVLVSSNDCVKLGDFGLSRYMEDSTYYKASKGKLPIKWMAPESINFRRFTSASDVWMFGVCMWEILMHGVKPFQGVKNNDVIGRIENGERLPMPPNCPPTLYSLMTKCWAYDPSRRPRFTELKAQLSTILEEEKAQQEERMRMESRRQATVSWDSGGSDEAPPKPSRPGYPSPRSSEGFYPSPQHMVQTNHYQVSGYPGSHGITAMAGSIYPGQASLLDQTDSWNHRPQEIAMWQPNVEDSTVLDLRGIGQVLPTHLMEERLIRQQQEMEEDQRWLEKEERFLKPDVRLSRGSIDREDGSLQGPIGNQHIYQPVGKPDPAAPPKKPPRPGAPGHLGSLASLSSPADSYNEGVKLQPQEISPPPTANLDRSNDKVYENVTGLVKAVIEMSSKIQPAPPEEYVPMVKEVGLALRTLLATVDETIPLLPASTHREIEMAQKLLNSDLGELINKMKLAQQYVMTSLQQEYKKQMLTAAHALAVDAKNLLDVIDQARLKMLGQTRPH
UniProt P35916, 25-1363 limits assumed: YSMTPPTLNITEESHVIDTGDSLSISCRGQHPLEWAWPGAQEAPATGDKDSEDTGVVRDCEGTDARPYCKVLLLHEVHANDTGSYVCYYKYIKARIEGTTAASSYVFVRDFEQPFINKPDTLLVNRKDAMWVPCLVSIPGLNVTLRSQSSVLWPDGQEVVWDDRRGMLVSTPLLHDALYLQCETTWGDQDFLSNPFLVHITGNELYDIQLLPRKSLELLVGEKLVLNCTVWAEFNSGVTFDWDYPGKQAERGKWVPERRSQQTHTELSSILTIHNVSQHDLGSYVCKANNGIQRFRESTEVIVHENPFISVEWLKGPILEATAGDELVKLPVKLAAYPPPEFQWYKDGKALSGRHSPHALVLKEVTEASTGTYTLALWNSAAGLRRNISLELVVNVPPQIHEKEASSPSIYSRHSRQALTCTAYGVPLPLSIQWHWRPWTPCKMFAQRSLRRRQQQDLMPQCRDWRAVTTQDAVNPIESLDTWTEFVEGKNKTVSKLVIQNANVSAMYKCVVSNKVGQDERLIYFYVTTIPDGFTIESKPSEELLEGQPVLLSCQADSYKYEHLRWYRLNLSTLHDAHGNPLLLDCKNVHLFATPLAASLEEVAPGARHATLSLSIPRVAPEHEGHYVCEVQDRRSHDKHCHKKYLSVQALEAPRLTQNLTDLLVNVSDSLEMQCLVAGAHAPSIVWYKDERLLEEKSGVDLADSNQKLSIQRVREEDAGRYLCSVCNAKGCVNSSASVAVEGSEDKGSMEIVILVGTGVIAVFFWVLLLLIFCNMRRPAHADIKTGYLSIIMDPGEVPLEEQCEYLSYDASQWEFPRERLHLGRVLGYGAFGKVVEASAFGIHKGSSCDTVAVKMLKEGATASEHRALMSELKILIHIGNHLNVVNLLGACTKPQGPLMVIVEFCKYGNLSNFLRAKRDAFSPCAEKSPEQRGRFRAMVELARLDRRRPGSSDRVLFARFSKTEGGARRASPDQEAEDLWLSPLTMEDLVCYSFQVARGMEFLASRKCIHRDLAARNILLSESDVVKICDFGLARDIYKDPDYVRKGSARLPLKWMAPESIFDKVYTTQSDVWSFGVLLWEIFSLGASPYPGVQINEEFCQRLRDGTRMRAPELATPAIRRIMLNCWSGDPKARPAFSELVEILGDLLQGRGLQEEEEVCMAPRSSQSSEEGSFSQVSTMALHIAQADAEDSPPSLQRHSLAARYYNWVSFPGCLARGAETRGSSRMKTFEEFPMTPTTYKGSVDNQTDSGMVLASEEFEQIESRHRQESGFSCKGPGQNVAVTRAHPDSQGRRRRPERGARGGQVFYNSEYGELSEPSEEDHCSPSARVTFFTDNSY

What was measured:
[1] = molecular target: FAK enzyme (catalytic domain, amino acids 411-686) (Homo sapiens (Human), UniProt Q05397); experiment: FAK biochemical Alpha Screen assay; details: 80 μM ATP
[2] = molecular target: N-terminally GST-fused purified FAK enzyme (Homo sapiens (Human), UniProt Q05397); experiment: FAK Biacore SPR assay; assay type: binding; details: Biacore S51, 25° C.
[3] = molecular target: VEGFR3 cytoplasmic domain (Homo sapiens, UniProt P35916); experiment: VEGFR3 biochemical assay (Alpha Screen); details: N-terminal GST-fusion protein (amino acids 798-1298), 500 μM ATP

For `CCc1cc(C2CCN(C)CC2)ccc1Nc1ncc(C(F)(F)F)c(CCc2ccccc2CC(N)=O)n1` [Compound 9, 2-(2-(2-(2-((2-Ethyl-4-(1-methylpiperidin-4-yl)phenyl)amino)-5-(trifluoromethyl)pyrimidin-4-yl)ethyl)phenyl)acetamide], the IC50 [1] was 3.6 nM, the Kd [2] was 1.5 nM and the IC50 [3] was 1010 nM.
